Earlier results on one compound are cited in patent US20240024490A1 (published 2024).

SMILES strings stand for the structures.

The data set concerns ID-8. The conditions noted are these: read-out: ID-8 IC50; cited from earlier work.

Turning to `CN1CC[C@H](c2c(O)cc(O)c3c(=O)cc(-c4ccccc4Cl)oc23)[C@H](O)C1` [Flavopiridol (1), flavopiridol], the 50% inhibitory concentration (IC50) was 7 nM.

A word on the IC50: it is the concentration needed to halve the response being measured.
